According to patent US7939626B2, “Chemoselective ligation” (The Regents of the University of California, priority 2000, dated 2011):

Test system: E. coli
Assay: Incorporation of azide-containing unnatural amino acids into recombinant proteins expressed in E. coli
Conditions: methods of Kiick et al., 2000

| Compound | incorporation into polypeptides |
| --- | --- |
| C[C@H](NN=[N+]=[N-])C(=O)O | have not been successful to date |
| homoazidoalanine | successfully incorporated into polypeptides |
